These results are taken from patent US8486916B2, “Medicine, food and drink or feed containing sphingomyelin” (Megmilk Snow Brand Co., Ltd., priority 2005, dated 2013).

This assay concerns human colon adenocarcinoma cell line Caco-2. Briefly: Test on tight junction formation (electric resistance). To be noted: 2 μg/ml in serum-free Cosmedium 001; 1st, 4th and 7th days of culture; FIG. 1.

As for sphingomyelin, the “electric resistance (R) value” is listed as “increased”. Turning to Ganglioside GM3 [reference compound], the “electric resistance (R) value” was “increased”.
